Chains of the proteins cited; added tags and fusions are not shown. Residues count along the entry.
UniProt P35354, 18-604 limits assumed: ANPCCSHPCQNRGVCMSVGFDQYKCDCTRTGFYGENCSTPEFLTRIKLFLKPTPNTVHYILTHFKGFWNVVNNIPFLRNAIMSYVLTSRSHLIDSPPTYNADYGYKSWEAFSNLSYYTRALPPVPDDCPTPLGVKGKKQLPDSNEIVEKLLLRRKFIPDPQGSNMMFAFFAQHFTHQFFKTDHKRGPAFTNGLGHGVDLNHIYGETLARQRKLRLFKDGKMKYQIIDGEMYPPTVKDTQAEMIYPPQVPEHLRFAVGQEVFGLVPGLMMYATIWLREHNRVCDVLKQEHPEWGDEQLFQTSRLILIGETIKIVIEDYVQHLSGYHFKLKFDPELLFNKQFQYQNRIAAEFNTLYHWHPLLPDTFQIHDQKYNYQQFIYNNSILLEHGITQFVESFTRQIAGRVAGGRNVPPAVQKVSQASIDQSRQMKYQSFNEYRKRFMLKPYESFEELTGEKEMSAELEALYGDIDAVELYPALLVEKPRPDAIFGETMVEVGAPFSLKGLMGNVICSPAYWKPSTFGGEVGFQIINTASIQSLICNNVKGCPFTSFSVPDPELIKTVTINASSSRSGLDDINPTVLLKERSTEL
UniProt P48432, 43-111 limits assumed: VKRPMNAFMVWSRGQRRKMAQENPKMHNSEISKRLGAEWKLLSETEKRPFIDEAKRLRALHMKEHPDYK
UniProt Q96DB2, whole entry: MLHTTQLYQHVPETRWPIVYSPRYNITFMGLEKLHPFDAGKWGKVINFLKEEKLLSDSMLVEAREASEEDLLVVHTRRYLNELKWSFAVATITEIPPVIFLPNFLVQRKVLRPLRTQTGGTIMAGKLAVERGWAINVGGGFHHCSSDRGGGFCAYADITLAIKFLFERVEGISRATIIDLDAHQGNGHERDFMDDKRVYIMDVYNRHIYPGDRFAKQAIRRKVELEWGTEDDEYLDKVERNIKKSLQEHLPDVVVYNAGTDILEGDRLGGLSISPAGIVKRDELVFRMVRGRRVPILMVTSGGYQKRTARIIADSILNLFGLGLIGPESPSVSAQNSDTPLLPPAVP
UniProt P48436, whole entry: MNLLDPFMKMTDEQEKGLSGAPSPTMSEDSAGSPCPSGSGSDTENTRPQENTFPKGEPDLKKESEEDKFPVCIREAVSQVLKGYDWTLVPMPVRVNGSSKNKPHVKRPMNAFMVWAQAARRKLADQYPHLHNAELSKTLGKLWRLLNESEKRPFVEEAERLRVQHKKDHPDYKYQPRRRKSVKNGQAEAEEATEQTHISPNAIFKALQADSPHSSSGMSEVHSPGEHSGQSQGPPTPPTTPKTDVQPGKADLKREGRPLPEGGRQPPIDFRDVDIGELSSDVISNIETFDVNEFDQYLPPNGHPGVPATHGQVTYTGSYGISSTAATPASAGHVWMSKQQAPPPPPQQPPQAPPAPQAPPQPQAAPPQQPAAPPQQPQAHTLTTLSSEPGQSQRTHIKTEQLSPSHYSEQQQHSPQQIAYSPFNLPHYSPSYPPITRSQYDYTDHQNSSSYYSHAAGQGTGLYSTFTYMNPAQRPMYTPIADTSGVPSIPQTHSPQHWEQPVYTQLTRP

In patent US20240002326A1, “COMPOUNDS AND USE THEREOF IN METHODS OF TREATMENT” (The University of Queensland, priority 2016, published 2024):

Experiments:
[1] = target: human COX2 (Homo sapiens (Human), UniProt P35354); assay: COX2 enzymatic assay; settings: up to a concentration of 200 μM
[2] = tested on: SOX binding site consensus DNA; assay: Direct DNA-binding assay (SPR), consensus DNA; settings: biotinylated double-strand DNA on streptavidin chip
Method: Compounds were tested at a 1% v/v DMSO in HBS-EP buffer (10 mM HEPES, 150 mM NaCl, 3 mM EDTA, 0.005% v/v polysorbate 20, pH 7.4). The same buffer supplemented with 1% v/v DMSO was used as a mobile phase. DNA minor groove binder DAPI (4′,6-diamidino-2-phenylindole), DNA intercalator and minor groove binder actinomycin D, and DNA intercalator ethidium bromide were used as positive controls. Biotinylated (one tag per probe) double strand DNA probes were prepared using a standard annealing routine (5 min at 100° C., room temperature overnight and stored at −20° C.) of single strand anti-parallel DNA Probes purchased from Geneworks and were immobilized on CM5-SA streptavidin chips as per manufacturer's recommendations. […] All sample and control cycles were performed in triplicate. DMSO calibration was performed as per manufacturer's recommendations. After each injection, an extra flow system wash was performed with 50% v/v DMSO to avoid carryover. Experiments were run on a Biacore T200 (GE Healthcare, USA), with one flow cell kept as a reference.
From a molecular viewpoint, an inhibitor of SOX18-DNA binding could act either by interacting directly with the DNA, or the protein, or at the interface between protein and DNA. […]

[3] = target: SOX2 HMG fragment (Mus musculus (Mouse), UniProt P48432); assay: FP DNA-binding competition assay, SOX2 HMG fragment; settings: read-out: DNA-binding inhibition IC50, SOX2 HMG; HMG only fragment
Method: Mouse SOX HMG fragments. The HMG domains of mouse SOX2 (Group B), SOX11 (Group C), SOX6 (Group D), SOX9 (Group E), SOX18 (Group F) and SOX15 (Group G) were BP cloned from cDNA templates (IMAGE cDNA clone IDs: Sox18: 3967084; Sox9: 5354229; Sox4: 6822618) into a pDONRTM221 pENTRY vector, sequenced and recombined into a pETG20A or a pHisMBP expression plasmid using Gateway®LR Technology (Ng et al., 2012). Constructs were transformed into Escherichia coli BL21(DE3) cells (Luria-Bertani, 100 μg/ml Ampicillin).
The DNA-binding competition assay was performed in black 384-well plates, with mouse full length SOX18, or SOX-HMG fragments. All experiments were performed using a fluorescently-labelled Prox1-DNA element. […]
The DNA-binding competition assay was performed in 25 uL, in black 384-well plates, using either 30 mM HEPES (N-2-Hydroxyethylpiperazine-N′-2-Ethanesulfonic Acid) (pH 7.5, with 100 mM KCl, 40 mM NaCl, 10 mM NH4OAc, […], 2 mM MgCl2, 0.5 mM EDTA, 0.01% NP-40) for mouse full length SOX18, or Tris-NaCl (10 mM Tris pH 8.0 and 100 mM NaCl) for SOX-HMG fragments. […] After mixing protein, DNA probe and compound, plates were sealed and briskly agitated in the dark for 5 minutes at room temperature, 10 minutes at 37° C., and 30 minutes at room temperature, before reading fluorescence polarization on a Tecan M1000Pro (λexc=485 nm, λem=525 nm). […]

[4] = target: HDAC11 (Homo sapiens (Human), UniProt Q96DB2); assay: Recombinant-enzyme fluorimetry assay, HDAC11
[5] = target: SOX9 (Homo sapiens (Human), UniProt P48436); assay: Cell based reporter assay for SOX9 activity (Col2a1:luc, COS-7); settings: any tested concentration (≤50 μM)

Compound: O=C(O)c1c(O)cccc1CCc1ccc2ccccc2c1
- COX-2 inhibitory activity [1]: None of the SOX18 inhibitor display any COX-1 or COX-2 inhibitory activity
- binding to consensus DNA (SPR) [2]: do not bind
- IC50 [3]: 270 to 310 µM
- Inhibition at 10 μM (%) [4]: −29.1%
- transcriptional activity of SOX9 [5]: did not affect
